Test results from patent publication US20230295114A1, “AKT3 MODULATORS” (Georgiamune LLC, priority 2020, published 2023).
pEC50, pIC50: −log10 of the molar value.

Protein sequences, listed by entry. Tags and fused reporters are not part of them.
UniProt Q9Y243, whole entry: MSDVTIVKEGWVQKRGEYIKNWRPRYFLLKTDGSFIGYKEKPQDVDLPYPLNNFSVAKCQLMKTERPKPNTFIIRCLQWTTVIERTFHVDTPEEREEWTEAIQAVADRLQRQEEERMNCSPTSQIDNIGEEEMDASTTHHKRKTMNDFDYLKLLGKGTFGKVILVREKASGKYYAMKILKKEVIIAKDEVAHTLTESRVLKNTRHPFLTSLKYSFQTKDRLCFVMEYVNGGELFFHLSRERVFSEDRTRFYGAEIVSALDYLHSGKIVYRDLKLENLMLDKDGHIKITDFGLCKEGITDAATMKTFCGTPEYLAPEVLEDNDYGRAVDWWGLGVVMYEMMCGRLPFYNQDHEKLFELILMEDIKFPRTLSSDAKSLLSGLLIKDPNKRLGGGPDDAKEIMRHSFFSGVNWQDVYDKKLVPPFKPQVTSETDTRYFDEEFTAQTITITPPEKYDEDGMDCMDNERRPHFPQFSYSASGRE

What was measured:
[1] = biological target: T1, Akt3 (Homo sapiens, UniProt Q9Y243); assay: Akt3 activation activity of selected compounds; format: cell-based; conditions: read-out: EC50, Akt3 activation activity
[2] = biological target: T1, Akt3; assay: Akt3 inhibition activity of selected compounds; format: cell-based; conditions: read-out: IC50, Akt3 inhibition activity

Row | SMILES | pEC50 [1] | pIC50 [2]
1 | Cc1cc(Nc2ccc3[nH]c(-c4ccc(Nc5cc(C)nc6ccc(N7CCOCC7)cc56)cc4)nc3c2)ccn1 | > 7.00 | 
2 | Cc1cc(Nc2ccc3c(c2)CN(c2cccc(Nc4cccc(F)c4)c2)C3=O)ccn1 |  | > 6.30
